Assay results reported in patent publication US7183319B2 (priority 2000, dated 2007).

Tested on: mushroom tyrosinase
Details: oximetry, compared with tyrosine methyl ester

## Methyl-2-di(2chloroethyl)aminocarbonylamino-3-(4-hydroxyphenyl)proponoate
  quality as tyrosinase substrate / oxidation rate in words: good substrates
